# What was measured:
# c-fos = test: Density of c-fos positive neurons in brain areas after sepsis; assay type: in vivo; details: septic mice vs placebo, at 1-16 as printed, p<0.05
# Method: Cecal Ligature and puncture. Animals who underwent CLP presented a higher density of neurons expressing c-fos in their nuclei 6 hours after sepsis induction in the central nuclei of the amygdala (8 vs. 3×10^-4.mm^-3, p<0.05). The expression of c-Fos peaked at H6 and decreased to normal values 24 hours after sepsis. C-fos expression pattern in the different brain areas is modified by levetiracetam administration. Levetiracetam lowered specifically c-fos expression in the central amygdala (CeA) at 1-16 (p<0.05).
# Caspase 3 = Caspase 3 cleavage and apoptotic cell count in brain after sepsis; assay type: in vivo; details: septic mice, caspase 3 immunohistochemistry cell count
compound,measurement,setting,value
"CC[C@@H](C(N)=O)N1CCCC1=O (single isomer, unassigned) [levetiracetam]",c-fos expression in the central amygdala (CeA),c-fos,lowered
same,number of apoptotic cell,Caspase 3,without modification

# Reference: patent publication US20220233503A1, “METHODS OF TREATING SEPSIS WITH SYNAPTIC VESICLE 2A AND/OR 2B BINDING CHEMICAL ENTITIES” (INSTITUT PASTEUR, priority 2016, published 2022)
